Yeast mating assay B: variants of the scFv Ab-14

Binding partner: SARS-CoV-2 spike HR2 peptide, sequence PDVDLGDISGINAS.

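The variants were designed computationally from a first round of random CDR variants and then made and measured. Their group label is 14H_Rand (Rand: our label for a block that the file lists under HC and that is probably the random mutants of the ten best first-round binders). AlphaSeq pools MATa yeast showing the antibodies with MATalpha yeast showing the peptide. After mating in shaken culture at 30 °C for 16 h, diploids were selected and their barcode pairs sequenced. Scores were corrected for input abundance and mapped to Kd with protein pairs of known affinity run in the same pool. There are six technical replicates.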

Ab-14 is the parent antibody, in scFv form: VH, then the linker GGGGSGGGGSGGGGS, then VL. The light chain is unchanged in all variants.
VH: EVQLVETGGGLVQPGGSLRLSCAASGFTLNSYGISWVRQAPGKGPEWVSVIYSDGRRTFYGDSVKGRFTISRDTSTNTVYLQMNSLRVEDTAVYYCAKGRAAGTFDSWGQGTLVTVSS
VL: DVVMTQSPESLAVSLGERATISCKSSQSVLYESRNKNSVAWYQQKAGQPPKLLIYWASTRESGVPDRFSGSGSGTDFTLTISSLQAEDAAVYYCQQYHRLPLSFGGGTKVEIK

The whole VH of each variant is written out. Scale: log10 of Kd in nM, estimated from mating counts; low values are strong binders. Averages over replicates are reported, and they cover detected replicates only. "n.d." means that the variant was in the library but no mating with the target was seen in that replicate; the authors take this as a sign of poor binding, and no number exists. Empty control strains, which show no peptide, gave a signal in 1% of pairings with all heavy chain designs; the median was 2.08 and 95% of these signals were weaker than 0.84. No background was subtracted. Also given: how often the same scFv was detected with the empty control strains, with their mean in brackets. A sequence measured in both rounds can read differently, since the two assays cover different ranges. The authors averaged sequences with at least three values out of six and counted those with two or fewer as poor binders.

VH	log10 Kd, replicates	log10 Kd (nM), mean	signal with controls
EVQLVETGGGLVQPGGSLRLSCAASGFTLNSYGISWVRQAPGKGPEWVSVIYADGRRTIYGDSVKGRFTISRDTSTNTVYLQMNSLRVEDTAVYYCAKGRAAGTNKSWGQGTLVTVSS	n.d. / n.d. / n.d. / n.d. / n.d. / n.d.	n.d.	0 of 18
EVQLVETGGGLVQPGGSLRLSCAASGFTLNQYGISWVRQAPGKGPEWVSVIYSDGRRTFYSDSVKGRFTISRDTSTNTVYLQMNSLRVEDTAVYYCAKGRAAGIFDSWGQGTLVTVSS	n.d. / n.d. / n.d. / n.d. / n.d. / n.d.	n.d.	0 of 18
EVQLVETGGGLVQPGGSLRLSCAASGFTYNSYGISWVRQAPGKGPEWVSVIYSDGCRTFYDDSVKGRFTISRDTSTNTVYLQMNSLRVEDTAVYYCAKGQLAGTFDSWGQGTLVTVSS	n.d. / n.d. / n.d. / n.d. / n.d. / n.d.	n.d.	0 of 18
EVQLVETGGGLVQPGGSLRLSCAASGFTLNEYGISWVRQAPGKGPEWVSVIYSDGRRTWYTDSVKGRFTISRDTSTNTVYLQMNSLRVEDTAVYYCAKGRFAGTFDSWGQGTLVTVSS	0.27 / n.d. / 1.30 / 0.99 / n.d. / n.d.	0.86	0 of 18
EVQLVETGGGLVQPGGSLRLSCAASGFTLNDYGISWVRQAPGKGPEWVSVIYSDPRRTFYGDHVKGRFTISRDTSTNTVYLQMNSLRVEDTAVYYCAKGRAALSFESWGQGTLVTVSS	n.d. / n.d. / n.d. / n.d. / n.d. / n.d.	n.d.	0 of 18
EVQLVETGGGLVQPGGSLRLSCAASGFTLNSYGISWVRQAPGKGPEWVSVIKSSGRRTFYDDSVKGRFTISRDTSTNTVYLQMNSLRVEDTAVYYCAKGQLAGTFDSWGQGTLVTVSS	n.d. / n.d. / n.d. / n.d. / n.d. / n.d.	n.d.	1 of 18 (2.04)
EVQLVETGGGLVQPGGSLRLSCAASGFTLDSYGISWVRQAPGKGPEWVSVIYSDGRFTFYGDSVKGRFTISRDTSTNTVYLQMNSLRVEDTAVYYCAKGRGAGTALSWGQGTLVTVSS	n.d. / n.d. / n.d. / n.d. / n.d. / n.d.	n.d.	0 of 18
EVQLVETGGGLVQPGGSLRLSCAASGFTPNDYGISWVRQAPGKGPEWVSVIYSDGRRTFYGDSVKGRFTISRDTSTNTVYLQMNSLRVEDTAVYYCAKGRATLTFISWGQGTLVTVSS	n.d. / n.d. / n.d. / n.d. / n.d. / n.d.	n.d.	0 of 18
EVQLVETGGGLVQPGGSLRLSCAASGFTRNEINISWVRQAPGKGPEWVSVIYSDGRRTFYGDSAKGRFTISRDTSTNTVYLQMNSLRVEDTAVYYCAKGRAAVTFDQWGQGTLVTVSS	n.d. / n.d. / n.d. / n.d. / n.d. / n.d.	n.d.	1 of 18 (0.28)
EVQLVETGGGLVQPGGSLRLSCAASGFTLNSYGISWVRQAPGKGPEWVSVIYADGRRTFYGDSVKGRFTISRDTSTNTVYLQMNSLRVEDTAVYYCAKGRAADTNFSWGQGTLVTVSS	n.d. / n.d. / n.d. / n.d. / n.d. / n.d.	n.d.	0 of 18
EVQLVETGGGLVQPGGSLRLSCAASGFTLNEYGISWVRQAPGKGPEWVSVIYSDGRRTFYGDSVKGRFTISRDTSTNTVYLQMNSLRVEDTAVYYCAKYRAAVWFDQWGQGTLVTVSS	0.66 / 0.04 / -0.11 / 0.47 / -0.27 / 0.02	0.14	0 of 18
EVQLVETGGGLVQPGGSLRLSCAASGFTLNDYGISWVRQAPGKGPEWVSVIYSDGRRTFYGDVVKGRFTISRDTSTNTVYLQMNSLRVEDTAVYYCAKARAALTFISWGQGTLVTVSS	n.d. / n.d. / n.d. / n.d. / n.d. / n.d.	n.d.	0 of 18
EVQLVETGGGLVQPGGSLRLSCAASGFTLNEYGIIWVRQAPGKGPEWVSVIYSDGRRCFYSDSVKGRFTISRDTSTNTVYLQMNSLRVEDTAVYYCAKGRAGGTFDSWGQGTLVTVSS	n.d. / n.d. / n.d. / n.d. / n.d. / n.d.	n.d.	0 of 18
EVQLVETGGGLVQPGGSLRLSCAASGFTLNQYGIKWVRQAPGKGPEWVSVIYSDRRRTFYSDVVKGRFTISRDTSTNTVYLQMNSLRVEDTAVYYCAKGRAAGFFDSWGQGTLVTVSS	n.d. / n.d. / n.d. / n.d. / n.d. / n.d.	n.d.	0 of 18

Values reported by Li et al. 2023, doi:10.1038/s41467-023-39022-2 (FLAb copy).